From ChEMBL document CHEMBL1152222, “Effect of B-ring substitution pattern on binding mode of propionamide selective androgen receptor modulators” (Bioorg Med Chem Lett, 2008) come the findings set out here.

The target in the assay is T1, Androgen receptor (Rattus norvegicus, UniProt P15207).
T1 sequence (P15207 whole entry): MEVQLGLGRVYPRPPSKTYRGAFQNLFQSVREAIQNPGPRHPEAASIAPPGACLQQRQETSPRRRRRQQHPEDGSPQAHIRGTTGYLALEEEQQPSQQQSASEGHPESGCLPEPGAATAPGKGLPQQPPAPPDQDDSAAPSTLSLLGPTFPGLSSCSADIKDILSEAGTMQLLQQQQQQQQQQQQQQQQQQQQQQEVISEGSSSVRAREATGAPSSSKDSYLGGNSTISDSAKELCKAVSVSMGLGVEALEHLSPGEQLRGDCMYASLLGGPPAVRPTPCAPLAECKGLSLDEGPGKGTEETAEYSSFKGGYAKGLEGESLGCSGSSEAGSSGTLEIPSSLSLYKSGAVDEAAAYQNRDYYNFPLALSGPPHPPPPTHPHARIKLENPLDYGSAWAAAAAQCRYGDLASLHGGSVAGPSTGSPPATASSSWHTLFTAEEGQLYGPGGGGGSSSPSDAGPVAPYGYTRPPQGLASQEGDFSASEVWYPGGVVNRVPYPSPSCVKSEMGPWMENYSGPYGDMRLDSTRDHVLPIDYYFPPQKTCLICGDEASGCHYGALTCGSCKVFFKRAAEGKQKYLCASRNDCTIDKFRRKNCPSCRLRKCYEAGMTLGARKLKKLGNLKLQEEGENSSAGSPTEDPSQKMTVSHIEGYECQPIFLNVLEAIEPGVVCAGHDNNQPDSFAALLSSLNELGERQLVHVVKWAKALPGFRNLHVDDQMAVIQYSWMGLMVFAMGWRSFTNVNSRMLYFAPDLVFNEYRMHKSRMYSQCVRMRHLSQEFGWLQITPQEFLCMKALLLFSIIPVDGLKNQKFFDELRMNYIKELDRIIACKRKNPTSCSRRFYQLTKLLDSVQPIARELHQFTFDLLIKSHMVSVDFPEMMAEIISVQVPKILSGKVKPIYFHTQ

Broadly, the Ki is a measure of affinity in units of concentration, obtained from inhibition or displacement. A lower Ki goes with higher affinity.

In turn, `C[C@@](O)(COc1ccc(Cl)c(F)c1)C(=O)Nc1ccc(C#N)c(C(F)(F)F)c1` had a Ki of 1.7 nM.
